Results as given in article PMC3540129.

Target: Kv7.2 (KCNQ2) B-D construct (Q2BD), tag removed (human) (UniProt O43526)
Test: SEC

stoichiometry N: 4
Substance: Kv7.2 (KCNQ2) B-D construct (Q2BD), tag removed (from UniProt O43526 1-872) (domain or fragment)
